# Measurements from patent publication US3997543A (priority 1974, dated 1976).
# System: Mice Eyes
# Experiment: Antagonism of mydriasis induced by phencyclidine in mice eyes
# Assay type: in vivo
# Details: Conc. 2 . 10^-1 M; mydriasis by 10^-2 M phencyclidine HCl; >15 equals blank
smiles,measurement,value
CC(=O)OC1C[N+]2(C)CCC1CC2 (racemic),Reversal of Mydriasis Time,> 15 min
